Results: patent US9452117B2 (priority 2011, dated 2016)

Key:
human skin cells [1] = test: Collagen production in human skin cells (Pricro-Sirius Red Method); conditions: concentrations between 0.0 μM to 5.0 μM, vs control, FIG. 12
[2] = system: Myf-5, myogenin, follistatin proteins in back and quadriceps muscles; test: Western blot of Myf-5, myogenin, follistatin in muscles of treated mice; conditions: 5-month old mice, oral 80 mg/kg body weight, 24 hours after administration, vs control
Large^myd mice [3] = test: Life span in Large^myd mice; conditions: Large^myd mice from age 16 weeks, oral 80 mg/kg body weight 3 times a week
[4] = system: Human skeletal muscle cells; test: Calcification (calcium-45 accumulation) in human skeletal muscle cells; assay type: cell-based; conditions: 10 uM, 48 hours, DMEM serum free medium, FIG. 7
[5] = system: myogenin and myostatin in biceps and tibialis anterior (TA); test: Western blot of myogenin and myostatin in mdx mice muscles; conditions: male mdx mice, oral 80 mg/kg body weight for 90 days, not on weekends, vs control
Large^myd mice [6] = test: Treadmill running exhaustion test, Large^myd mice; conditions: 40 mg/kg body weight daily for 3 months, not on weekends, Mean±SEM
Large^myd mice [7] = test: Forelimb grip strength, Large^myd mice; conditions: 40 mg/kg body weight daily for 3 months, not on weekends, Mean±SEM, control 0.182 ± 0.014
[8] = system: myogenin in back, TA, quadriceps, and diaphragm; test: Skeletal muscle myogenesis in normal mice (myogenin Western blot); conditions: male C57Black6 normal mice, gavage 40 mg/kg body weight daily for 2 days, 24 hours after second treatment, vs corn oil control
mdx mice = test: H&E staining of biceps and tibialis anterior muscles of mdx mice; conditions: male mdx mice, gavage 40 mg/kg body weight daily for 3 months, vs control
Normal C57BL10 mice = test: Blood lactate after vigorous treadmill exercise; conditions: 40 mg/kg body weight after 1 hour treadmill, vs untreated control, FIG. 11
human skin cells [9] = test: Calcification (calcium-45 accumulation) in human skin cells; assay type: cell-based; conditions: concentrations between 0.0 μM to 5.0 μM, vs control, FIG. 13
Normal mice = test: Fatigue resistance: voluntary wheel running after forced treadmill run; conditions: normal mice 3-4 months old, 2 mg/100 μl/mouse after 1 hour treadmill, 4 days, FIG. 10

Structure (SMILES)	collagen level production (human skin cells [1])	expression of Myf-5 (Western blot) [2]	expression of follistatin (Western blot) [2]	expression of myogenin (Western blot) [2]	average life span (Large^myd mice [3]; control group 37 weeks) [weeks]	life span range (Large^myd mice [3]; control range 19-50)	calcification (calcium-45 accumulation) [4]	myogenin expression in TA and biceps (Western blot) [5]	myostatin levels (Western blot) [5]	Running time (Large^myd mice [6]; control 32.4 ± 10.2) [min]	Running distance (Large^myd mice [6]; control 420.1 ± 170.7) [meter]	Grip strength (Large^myd mice [7]) [LBF]	myogenin expression in back, TA, quadriceps, and diaphragm (Western blot) [8]	tissue inflammation and degradation (H&E staining of biceps and tibialis anterior) (mdx mice)	blood lactate content (Normal C57BL10 mice)	calcification (calcium-45 accumulation) (human skin cells [9])	fatigue resistance (voluntary running on wheel after forced treadmill run) (Normal mice)
CCCC(CCC)CO[N+](=O)[O-] [Compound D2, 2-propylpentyl nitrate]	significant increases																
CCCC(C)(CO[N+](=O)[O-])CO[N+](=O)[O-]	significant increases	increase	increase	increase	45	30-50 weeks	reduce calcification	increased	decreased	65.7 ± 13.9	979.2 ± 256.8	0.233 ± 0.024	increased	significant reduction	reduced	significant reduction	helps animals recover from fatigue or tiredness after exercise
